High-throughput results deposited in PubChem by Broad Institute.
UUG fidelity: alters start codon recognition fidelity in yeast. S. cerevisiae UUG-firefly luciferase reporter, luminescence/redox ratio. activity score, % at 18.7 µM. 0.13% of 350,000 active. AID 602363;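 active = replicate mean at a twofold rise or more, about +100% in these data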;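 also: firefly luciferase made from a UUG start codon reports start codon fidelity; reporter light over untreated wells divided by growth signal over untreated wells; some hits fall short of that in this replicate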
CDK5 inh: inhibitors of human CDK5/p35 kinase, primary screen, biochemical, single concentration | Recombinant CDK5/p35, ADP-Glo luminescence, 60 min | inhibition, % at 10 µM | 0.01% of 330,000 active | AID 488839, 2010;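 active = highest replicate inhibition of at least 50% and at least 75% of replicates reaching 50%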;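 note: plate controls were DMSO neutral control for no effect and GW8510 at 10 µM for full effect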
Rtt109 HAT inh: inhibitors of C. albicans Rtt109/Vps75 HAT, primary screen, biochemical, ThioGlo CoA-SH fluorescence, plate reader. purified Rtt109/Vps75, 4 h. inhibition, % at 34.9 µM. 0.16% of 330,000 active. AID 540336, 2011;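 active = inhibition of at least 50% in every replicate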
C2C12 statin: suppressors of statin myotoxicity in C2C12 myotubes, primary screen, cell-based, single point, plate reader; C2C12 myotubes + simvastatin, ATP luminescence, 48 h; scaled: DMSO 0, geranylgeraniol control 100; rescue of ATP level, % at 7.49 µM; 0.78% of 330,000 active; AID 602340, 2012;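 active = mean ATP rescue above about 67%, or every replicate alone reaching that limit, limit read from the data, passing the limit was not always enough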;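 note: myotubes were challenged with 10 µM simvastatin during compound exposure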
Cneo AK release: Cryptococcus neoformans cell lysis inducers, primary screen, AK release luminescence, single concentration. 0.2% of 360,000 active. C. neoformans lysis, adenylate kinase release luminescence, 4 h; normalised: neutral wells 0, clomiphene wells 100. lysis activity, % at 15 µM;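 active = mean lysis activity across replicates of at least 80%, whatever share of replicates individually reach that level; inactive = mean lysis activity below 80%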
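Signal: Adenylate kinase release luminescence | Assay system: Log-phase Cryptococcus neoformans yeast cells | Input: Cells at 5 × 10^6 per mL | Buffer or medium: Fresh YPD growth medium | Compound: Single dose | Schedule: Static 4 h at 37 °C with compound, 1 h detection | Controls: Clomiphene | Read-out: Luminescence rise reflecting yeast cell lysis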
* hit, by the source's call; . = no result given. Shown are actives, neighbours in structure and some others; about 1% of the full set was active somewhere.

1) CCCc1n[nH]c2c1/C(=N/O)CC(c1ccccc1)C2 (configuration not stated)
2) CCc1n[nH]c2c1/C(=N/O)CCC2
3) COc1ccc(C)cc1C(=O)C1CC(C(=O)O)C(C)(C)C1C (configuration not stated)
4) O=C(COC(=O)Cc1ccccc1F)NCc1ccc(Cl)cc1
5) O=C(COC(=O)Cc1ccc(Cl)cc1)NCc1ccc(Cl)cc1
6) CC(=O)N[C@@H]1CC[C@H](CCNC(=O)C2CCC2)O[C@@H]1CO
7) O=C(Cc1ccncc1)NCC[C@@H]1CC[C@H](NC(=O)C2CCCC2)[C@@H](CO)O1
8) O=C(Cc1ccncc1)NCC[C@H]1CC[C@H](NC(=O)C2CCCC2)[C@H](CO)O1

| assay / entry | 1 | 2 | 3 | 4 | 5 | 6 | 7 | 8 |
| --- | --- | --- | --- | --- | --- | --- | --- | --- |
| UUG fidelity | -7.8 | 3.6 | . | 8.7 | -12.4 | -4.0 | -3.3 | 196.3* |
| CDK5 inh | -0.6 | -0.6 | -0.5 | -1.9 | . | . | . | . |
| Rtt109 HAT inh | -0.7 | 7.9 | -3.7 | -3.4 | . | . | . | . |
| C2C12 statin | . | 87.3* | 104.2* | 100.4* | 1.4 | -0.6 | 0.5 | -2.8 |
| Cneo AK release | -3.8 | 1.9 | . | 0.0 | -0.3 | 1.3 | -1.1 | 3.6 |

Some of these compounds in order of their number in UUG fidelity, descending:
no. | compound | UUG fidelity
4 | O=C(COC(=O)Cc1ccccc1F)NCc1ccc(Cl)cc1 | 8.7
2 | CCc1n[nH]c2c1/C(=N/O)CCC2 | 3.6
1 | CCCc1n[nH]c2c1/C(=N/O)CC(c1ccccc1)C2 (configuration not stated) | -7.8

Continued.
9) CC(=O)N[C@H]1CC[C@@H](CCNC(=O)C2CCC2)O[C@H]1CO
10) COc1ccc(NC(=O)N(C)C[C@@H]2OCCCC[C@H](C)Oc3ccc(NS(=O)(=O)c4ccccc4)cc3C(=O)N([C@H](C)CO)C[C@H]2C)cc1
11) O=C(CCCCC(=O)NN=Cc1ccccc1O)NN=Cc1ccccc1O
12) CCCCCCCC(=O)N/N=C/c1cccnc1
13) CCCCCCCC(=O)N/N=C/c1ccc(Br)cc1
14) C[C@@H]1CCCCO[C@@H](CN(C)C(=O)c2ccccc2)[C@@H](C)CN([C@H](C)CO)C(=O)c2cc(NC(=O)CCC(F)(F)F)ccc2O1
15) COc1cccc(/C(O)=C2/C(=O)C(=O)N(Cc3cccnc3)C2c2ccco2)c1 (configuration not stated)
16) O=C1C(=O)N(Cc2cccnc2)C(c2ccccn2)/C1=C(/O)c1ccccc1 (configuration not stated)

| assay / entry | 9 | 10 | 11 | 12 | 13 | 14 | 15 | 16 |
| --- | --- | --- | --- | --- | --- | --- | --- | --- |
| UUG fidelity | -3.1 | -0.3 | -23.1 | -11.8 | -1.2 | 10.1 | 4.2 | -14.1 |
| CDK5 inh | . | . | 1.9 | 0.1 | 0.6 | . | -0.6 | -1.1 |
| Rtt109 HAT inh | . | . | 0.1 | 1.9 | -0.6 | . | -0.4 | 15.7 |
| C2C12 statin | -4.0 | . | 105.7* | 15.5 | 133.5* | . | 1.8 | 134.6* |
| Cneo AK release | 112.1* | -1.7 | 0.7 | -1.8 | 5.7 | -2.2 | 1.7 | -0.3 |

Given as labelled records: part of the list above.
4. O=C(COC(=O)Cc1ccccc1F)NCc1ccc(Cl)cc1
  UUG fidelity: 8.7	CDK5 inh: -1.9	Rtt109 HAT inh: -3.4	C2C12 statin: 100.4*	Cneo AK release: 0.0

5. O=C(COC(=O)Cc1ccc(Cl)cc1)NCc1ccc(Cl)cc1
  UUG fidelity: -12.4	CDK5 inh: .	Rtt109 HAT inh: .	C2C12 statin: 1.4	Cneo AK release: -0.3

The list continues:
17) C=CCOc1ccc(/C(O)=C2\C(=O)C(=O)N(CCOC)C2c2cccnc2)cc1 (configuration not stated)
18) C[C@@H]1CN([C@H](C)CO)C(=O)c2cc(C3=CCCCC3)cnc2O[C@H]1CN(C)C(=O)Cc1cccnc1
19) C[C@H]1CN([C@@H](C)CO)C(=O)c2cc(C3=CCCC3)cnc2O[C@@H]1CN(C)Cc1ccccc1F
20) C[C@@H]1CN([C@H](C)CO)C(=O)c2cc(C3=CCCCC3)cnc2O[C@@H]1CN(C)C(=O)c1ccccn1
21) C[C@@H]1CN([C@H](C)CO)C(=O)c2cc(C3=CCCCC3)cnc2O[C@@H]1CN(C)Cc1ccccc1F
22) COc1cccc(C(=O)Nc2nc3c(c(=O)[nH]2)CCCC3)c1
23) C[C@@H]1CN([C@@H](C)CO)C(=O)c2cccc(NC(=O)Nc3ccc(F)cc3)c2O[C@H]1CN(C)Cc1ccc(Oc2ccccc2)cc1
24) CN(C(=O)c1cncc(Br)c1)C1C2CC3CC(C2)CC1C3 (configuration not stated)

| assay / entry | 17 | 18 | 19 | 20 | 21 | 22 | 23 | 24 |
| --- | --- | --- | --- | --- | --- | --- | --- | --- |
| UUG fidelity | -5.6 | 21.8 | . | -10.1 | -13.5 | -10.1 | 1.1 | -3.3 |
| CDK5 inh | -0.7 | . | . | . | . | -1.3 | . | -0.1 |
| Rtt109 HAT inh | 60.0* | . | . | . | . | 0.4 | . | 59.2* |
| C2C12 statin | 1.8 | 2.2 | 10.8 | 106.0* | 114.7* | 95.8* | 0.4 | 2.8 |
| Cneo AK release | 6.7 | 103.7* | 0.0 | -4.6 | 0.5 | 1.8 | -0.1 | -2.3 |

25) OC[C@@H]1CN(Cc2ccc(Cl)cc2)C[C@H](n2cnc3c(NCc4ccc(F)cc4)ncnc32)O1
26) COc1cc(CNc2ncnc3c2ncn3[C@H]2CN(Cc3cccc4ccccc34)C[C@@H](CO)O2)cc(OC)c1OC
27) COc1ccc(CN2C[C@@H](CO)O[C@@H](n3cnc4c(NCc5ccc(F)cc5)ncnc43)C2)cc1
28) CCCNC(=O)C[C@H]1CC[C@H]2[C@H](COc3ccc(NC(=O)Cc4ccccc4)cc3C(=O)N2C)O1
29) Cc1ccnc(NC(=O)CCC(=O)N(CC(=O)NCC2CCCO2)Cc2ccc(F)cc2)c1 (configuration not stated)
30) Cc1ccnc(NC(=O)CCC(=O)N(CC(=O)NCc2ccc(F)cc2)CC2CCCO2)c1 (configuration not stated)
31) COCCNC(=O)C[C@@H]1CC[C@@H]2[C@H](COC[C@H](O)CN2C(=O)Nc2ccccc2OC)O1
32) CC#CCN(CC#CC)S(=O)(=O)c1ccc(-n2cnnn2)c(OC)c1

| assay / entry | 25 | 26 | 27 | 28 | 29 | 30 | 31 | 32 |
| --- | --- | --- | --- | --- | --- | --- | --- | --- |
| UUG fidelity | 8.5 | -3.7 | -15.0 | 6.3 | -7.4 | -6.2 | . | -7.0 |
| CDK5 inh | . | . | . | . | -1.5 | -0.7 | . | -1.0 |
| Rtt109 HAT inh | . | . | . | . | -3.0 | -2.9 | . | 53.7* |
| C2C12 statin | 0.3 | 165.9* | 81.3* | 28.4 | 91.3* | -8.7 | -30.5 | -12.8 |
| Cneo AK release | 0.5 | 0.0 | 0.5 | 1.5 | 0.5 | -1.0 | -0.8 | -0.7 |

33) Cc1ccc(C(=O)NCC(=O)NCC(c2ccco2)N2CCCCC2)cc1C (configuration not stated)
34) COc1cc(C(=O)NCC(=O)NCC(c2ccco2)N2CCCCC2)cc(OC)c1OC (configuration not stated)
35) C[C@H]1CN([C@@H](C)CO)C(=O)Cc2cc(N(C)C)ccc2O[C@@H]1CN(C)Cc1ccc2c(c1)OCO2
36) CC(NCC(O)COC1CCC(C(C)(C)C)CC1)c1ccccc1 (configuration not stated)
37) Cc1cccc(OCCSCc2nc3ccccc3[nH]2)c1
38) O=C(c1ccccc1)c1ccc(OCC(O)CN2CCN(S(=O)(=O)N3CCCCC3)CC2)cc1 (configuration not stated)
39) CC=Cc1ccc2n(c1=O)C[C@H]1[C@H](CO)[C@@H](C(=O)NCc3ccccc3)N(CCC(F)(F)F)[C@@H]21 (mixture of isomers)
40) COc1ccc(-c2nc(CC(=O)O)cs2)cc1
41) O=[N+]([O-])c1ccccc1/C=N/Nc1nccnc1Cl
42) O=C(C[C@@H]1CC[C@@H]2[C@H](COC[C@H](O)CN2Cc2cc(F)cc(F)c2)O1)NC1CCC1

| assay / entry | 33 | 34 | 35 | 36 | 37 | 38 | 39 | 40 | 41 | 42 |
| --- | --- | --- | --- | --- | --- | --- | --- | --- | --- | --- |
| UUG fidelity | -3.9 | 1.2 | -6.8 | 11.3 | -28.3 | 9.1 | . | -10.1 | -20.5 | . |
| CDK5 inh | 0.6 | -0.7 | . | -1.2 | -2.3 | -0.7 | . | 0.4 | -0.1 | . |
| Rtt109 HAT inh | 56.1* | 14.1 | . | 60.0* | -6.8 | 5.0 | . | -8.0 | -11.0 | . |
| C2C12 statin | -5.6 | 32.5 | 20.7 | -5.1 | 80.6* | 77.3* | -1.5 | 105.2* | 111.5* | 9.7 |
| Cneo AK release | 1.5 | -0.3 | 3.7 | 4.0 | -6.0 | -0.3 | 0.1 | -2.6 | 2.3 | 1.1 |
